Common to all, as to type: in vivo
One data set relates to flies. The experiment in a line: Flies: placed in sprayed petri dishes; dead or crippled flies counted. The conditions noted are these: Methoxychlor alone, I:P 100:0; after 24 hours; stated logarithmically (3 = 10^^-3 g/cm^3). As to the method:
For each test, two petri dishes are sprayed with a solution of the active ingredient(s) in acetone or an aqueous spray-wash of the active ingredient(s). The dosage for each treated surface is 10^^-5 g/cm^2 = 1 kg/ha. After 2-3 hours, 10 flies aged 4-5 days are placed in each petri dish. After 1, 3 and 24 hours, the flies which are dead or crippled are counted.

For the next data set, the system named is spider-mite eggs. The experiment in a line: Spider-mites on sprayed leaf discs, assessment based on the mortality of the eggs (O). The conditions noted are these: Methoxychlor alone, I:P 100:0; stated logarithmically (3 = 10^^-3 g/cm^3); 8640 min. How it is done:
(§1) For each test, three beam leaf discs each with a 2-day infection and with 20-40 spider-mites and eggs are sprayed with a solution of the active ingredient(s) in acetone or an aqueous spray-wash of the active ingredient(s). The dosage for each treated surface is 10^^-5 g/cm^2 = 1 kg/ha. After 2 days, the discs are assessed for dead spider-mites and after 6 days for dead spider-mites and killed eggs. (Assessment scheme: from 0-5, where 0 = 0% and 5 = 100% mortality).
O = assessment based on the mortality of the eggs.

A further data set has as its system spider-mites. The experiment in a line: Spider-mites on sprayed leaf discs, assessment based on the mortality of the spider-mites (W). The conditions noted are these: Methoxychlor alone, I:P 100:0; stated logarithmically (3 = 10^^-3 g/cm^3). How it is done:
as §1
W = assessment based on the mortality of the spider-mites;

In the next data set the test system is black bean aphids. Briefly: Aphids: seedling of the field bean with black bean aphids sprayed; dead and surviving aphids counted. The conditions noted are these: Methoxychlor alone, I:P 100:0; stated logarithmically (3 = 10^^-3 g/cm^3). As to the method: The experiments described in the following examples are carried out with the following representative examples of the propynyl benzyl ethers (P) of formula I having juvenile hormone-like activity, which can be utilized in combination with an insect-poison (I) to form the active substance for an insecticide composition.
The results for each example are provided in a table at the end thereof. The concentration for each LD50 determination is stated logarithmically in terms of the concentration of insect-poison (e.g. 3 =10^^-3 g/cm^3 = 1%). Said LD50 values define the concentration of insect-poison present at which 50% of the insects die or become crippled. In the case where the ratio of insect-poison to propynyl benzyl ether is 0:100 (I:P = 0:100), the LD50 values stated refer to the propynyl benzyl ether itself (and are not based on the insect-poison).
For each test, one seedling of the field bean with ca 50-100 black bean aphids is sprayed with a solution of the active ingredient(s) in acetone or an aqueous spray-wash of the active ingredient(s). The seedlings are individually placed in tubes in water. After 24 and 48 hours, the dead and surviving aphids are counted and the activity calculated in %.

The structures appear in SMILES notation. Some results are limits rather than exact numbers.

In the case of `COc1ccc(C(c2ccc(OC)cc2)C(Cl)(Cl)Cl)cc1` [Methoxychlor, 1,1,1-trichloro-2,2,bis-(p-methoxyphenyl)-ethane, reference compound], the “LD50 concentration based on insect-poison” value with flies worked out at 3.8; in the data set with black bean aphids, 3.3. Also, the “LD50 concentration based on insect-poison (O, mortality of the eggs)” value with spider-mite eggs was less than 3. Besides, in the data set on spider-mites, the “LD50 concentration based on insect-poison (W, mortality of the spider-mites)” value is on record as less than 3.

Source of the values: patent US3946040A, “Propynyl benzyl ethers” (Hoffmann-La Roche Inc., priority 1973, dated 1976).
